# Test results as given in US4524068A, “Cyclodextrin inclusion complex of piperonyl butoxide” (priority 1982, dated 1985).
# Conditions: water, 1 h
substance,measurement,value
inclusion complex of α-cyclodextrin and piperonyl butoxide [Example 7],amount of piperonyl butoxide which can be dissolved from the complex,0.165 mg/mL
